Sequences of proteins named here, by UniProt entry; tags and fusion partners are left off. Residues count along the entry.
UniProt P56524, 627-1084: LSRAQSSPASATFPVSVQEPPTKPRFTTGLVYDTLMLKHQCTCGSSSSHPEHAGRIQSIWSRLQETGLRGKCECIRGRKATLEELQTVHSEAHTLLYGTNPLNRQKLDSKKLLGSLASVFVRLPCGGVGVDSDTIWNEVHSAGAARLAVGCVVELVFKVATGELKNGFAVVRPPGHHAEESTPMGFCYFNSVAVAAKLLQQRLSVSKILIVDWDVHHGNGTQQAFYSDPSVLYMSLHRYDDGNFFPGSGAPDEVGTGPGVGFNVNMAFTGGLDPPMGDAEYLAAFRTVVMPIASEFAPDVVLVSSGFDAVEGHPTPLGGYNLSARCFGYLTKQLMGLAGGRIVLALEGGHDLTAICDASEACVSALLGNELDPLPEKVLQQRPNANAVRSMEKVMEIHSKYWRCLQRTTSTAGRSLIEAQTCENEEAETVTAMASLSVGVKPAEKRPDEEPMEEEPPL

In publication PMC7782793, “Hydroxamic acid-modified peptide microarrays for profiling isozyme-selective interactions and inhibition of histone deacetylases” (Nature Communications, 2021):

Molecular target: HDAC4 (Homo sapiens, UniProt P56524)
Conditions: 2 internal replicates

residual enzymatic activity relative to control wells (inhibitor 5 µM): 15.14 and 20.9 | residual enzymatic activity relative to control wells (inhibitor 50 µM): 3.06 and 5.38
SMILES: CC(/C=C/C(=O)NO)=C\[C@@H](C)C(=O)c1ccc(N(C)C)cc1 [TSA, trichostatin A, reference compound]

“And” between values parts separate entries of the source, which are not always exact repeats. Equal entries are not always repeated. Where two headings read alike, the source gives them in different places.
